Literature values in patent publication US10329354B2, “Modulation of efferocytosis pathways for treatment of atherosclerotic disease” (The Board of Trustees of the Leland Stanford Junior …, priority 2013, dated 2019).

Biological target: CD47 (Homo sapiens, UniProt Q08722)
Details: cited from earlier work

## Hu5F9-G4: humanized anti-CD47 mAb engineered by CDR grafting of mouse sequences into a human IgG4 framework
  binding to CD47: highly selective and highly efficient binding
